Data from publication PMC10631289 (Bioorganic & medicinal chemistry letters, 2023).
“Also recorded” adds a separate entry of the source.

Amino acid sequences for entries named in this document (tags omitted).
UniProt P46095, whole entry R220Y: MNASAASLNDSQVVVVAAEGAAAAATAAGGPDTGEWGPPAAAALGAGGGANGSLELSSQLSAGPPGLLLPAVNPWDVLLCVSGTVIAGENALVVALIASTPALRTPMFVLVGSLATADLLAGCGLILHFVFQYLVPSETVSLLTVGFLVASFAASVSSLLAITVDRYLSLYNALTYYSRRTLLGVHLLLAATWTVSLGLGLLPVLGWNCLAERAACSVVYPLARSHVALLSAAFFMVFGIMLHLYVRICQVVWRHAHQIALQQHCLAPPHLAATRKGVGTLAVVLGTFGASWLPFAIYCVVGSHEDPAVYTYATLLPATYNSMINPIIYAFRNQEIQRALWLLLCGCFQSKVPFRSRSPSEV

Assays:
[1] = molecular target: GPR6 R220Y mutant (Homo sapiens, UniProt P46095, R220Y); experiment: cAMP accumulation, GPR6 R220Y mutant receptor; type: cell-based
[2] = test system: HEK parental cell line; experiment: cAMP accumulation in HEK parental cell line; details: up to 10 μM
[3] = molecular target: hGPR6 (Homo sapiens, UniProt P46095); details: HEK GPR6 cell line
[4] = molecular target: T1, hGPR12 (Homo sapiens, UniProt P47775); details: HEK GPR12 cell line
T1 sequence (P47775 1-334): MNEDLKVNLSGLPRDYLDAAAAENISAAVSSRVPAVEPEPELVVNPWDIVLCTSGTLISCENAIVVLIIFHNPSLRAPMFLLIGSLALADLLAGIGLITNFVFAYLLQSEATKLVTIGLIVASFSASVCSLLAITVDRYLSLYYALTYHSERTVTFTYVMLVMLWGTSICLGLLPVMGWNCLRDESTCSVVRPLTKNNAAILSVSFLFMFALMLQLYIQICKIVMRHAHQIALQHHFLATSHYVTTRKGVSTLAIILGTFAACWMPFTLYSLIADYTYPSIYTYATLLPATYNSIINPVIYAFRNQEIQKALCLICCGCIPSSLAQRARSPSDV

## FC(F)(F)Oc1ccc2c(c1)[I+]c1ccccc1-2 [Compound 32]
[1]
  activity in GPR6 R220Y mutant: did not confer activity; also recorded: no activity
[2]
  increase of cAMP: Neither compound increased cAMP; also recorded: but not GPR6, GPR12, or in HEK293 cells alone
[3]
  increase of cAMP response over basal levels: but not GPR6, GPR12, or in HEK293 cells alone
[4]
  increase of cAMP response over basal levels: but not GPR6, GPR12, or in HEK293 cells alone
